In assay [1] the target is Cyclin-dependent kinase 7 (Homo sapiens) (UniProt P50613). Nature of the assay: Inhibition of CDK7 (unknown origin) at 10 uM by DiscoverX KINOMEscan assay.
Assay [2] deals with Phosphatidylinositol 4,5-bisphosphate 3-kinase catalytic subunit gamma isoform (Homo sapiens) (UniProt P48736). The assay can be described thus: Inhibition of PIK3CG (unknown origin) at 10 uM by DiscoverX KINOMEscan assay.

Chains of the proteins cited; added tags and fusions are not shown. Lines headed by an entry give the natural chain unless they say otherwise; changes in a name come on top.
UniProt P50613: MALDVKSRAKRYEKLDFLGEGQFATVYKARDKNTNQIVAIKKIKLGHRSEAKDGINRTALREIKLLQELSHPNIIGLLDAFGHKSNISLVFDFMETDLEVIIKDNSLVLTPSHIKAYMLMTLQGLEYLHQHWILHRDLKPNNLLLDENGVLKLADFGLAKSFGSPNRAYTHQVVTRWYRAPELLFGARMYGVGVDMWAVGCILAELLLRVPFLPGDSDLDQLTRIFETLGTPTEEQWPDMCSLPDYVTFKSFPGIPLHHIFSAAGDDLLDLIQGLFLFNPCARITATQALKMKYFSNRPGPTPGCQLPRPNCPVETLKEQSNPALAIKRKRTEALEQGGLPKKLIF
UniProt P48736: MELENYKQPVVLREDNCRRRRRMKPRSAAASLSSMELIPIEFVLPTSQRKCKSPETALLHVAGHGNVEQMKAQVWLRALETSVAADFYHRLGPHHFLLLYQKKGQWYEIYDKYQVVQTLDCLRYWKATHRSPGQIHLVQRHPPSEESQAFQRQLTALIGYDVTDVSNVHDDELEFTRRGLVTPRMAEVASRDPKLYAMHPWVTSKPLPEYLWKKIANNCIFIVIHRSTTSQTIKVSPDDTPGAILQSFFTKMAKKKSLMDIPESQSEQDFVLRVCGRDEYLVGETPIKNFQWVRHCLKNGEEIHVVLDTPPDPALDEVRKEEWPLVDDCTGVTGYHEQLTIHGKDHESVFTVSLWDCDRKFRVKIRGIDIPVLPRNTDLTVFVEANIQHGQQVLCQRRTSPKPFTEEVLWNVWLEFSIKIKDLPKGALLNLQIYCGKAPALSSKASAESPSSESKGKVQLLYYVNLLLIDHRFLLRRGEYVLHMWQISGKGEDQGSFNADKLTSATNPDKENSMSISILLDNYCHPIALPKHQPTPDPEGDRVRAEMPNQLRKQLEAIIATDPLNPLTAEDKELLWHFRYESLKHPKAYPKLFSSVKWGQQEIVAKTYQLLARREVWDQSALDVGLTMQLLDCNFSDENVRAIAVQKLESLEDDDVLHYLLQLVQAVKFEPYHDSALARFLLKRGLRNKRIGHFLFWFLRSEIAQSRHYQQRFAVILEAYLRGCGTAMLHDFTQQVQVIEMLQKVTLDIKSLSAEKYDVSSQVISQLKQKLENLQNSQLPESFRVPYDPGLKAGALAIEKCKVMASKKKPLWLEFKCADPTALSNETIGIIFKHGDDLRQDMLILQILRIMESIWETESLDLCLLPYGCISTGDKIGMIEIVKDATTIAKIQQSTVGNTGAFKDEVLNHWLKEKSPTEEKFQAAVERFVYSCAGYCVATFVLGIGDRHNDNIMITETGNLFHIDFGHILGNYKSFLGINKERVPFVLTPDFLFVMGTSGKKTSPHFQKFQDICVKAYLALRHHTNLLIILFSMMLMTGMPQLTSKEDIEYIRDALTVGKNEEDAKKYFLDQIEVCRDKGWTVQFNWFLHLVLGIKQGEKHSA

Active and inactive are the calls of the source. The calls are words filed in the database; no cut-off is given here.

Consider `COc1ccc2c3ccnc(C)c3n(CCN(C)C)c2c1.O=C(O)/C=C/C(=O)O`, for which the inhibition entry in assay [1] and in assay [2] was “Active” in each case.

Source of the values: ChEMBL document CHEMBL5543160, “Psychoplastogenic DYRK1A Inhibitors with Therapeutic Effects Relevant to Alzheimer's Disease” (J Med Chem, 2024).
